Measured vapor pressure values of organic chemicals

Source: data files of OPERA 2.9 (Mansouri et al.), github.com/kmansouri/OPERA.

Vapor pressure is log10 of mmHg; the set covers 15 to 30 °C, mostly 20 to 25 °C. "n/a" marks a cell with nothing listed here.

compound	name	log VP (log10 mmHg)
CC(C)CCCCCCCCCCCCCCC(=O)OCC(O)COCC(O)COC(=O)CCCCCCCCCCCCCCC(C)C (stereo not drawn)	Di(isooctadecanoic) acid, diester with oxydi(propanedio	-5.41
CCCC(C)C(=O)O (stereo not drawn)	2-Methylpentanoic acid	0.176
CCC(C)Nc1ccc(Cc2ccc(NC(C)CC)cc2)cc1 (stereo not drawn)	4,4'-Bis(sec-butylamino)diphenylmethane	-7.999
O[C@H]1CO[C@H]2OCC[C@H]21	(3R,3aS,6aR)-Hexahydrofuro[2,3-b]furan-3-ol	-2.846
CCO[Si](CCC(F)(F)C(F)(F)C(F)(F)C(F)(F)C(F)(F)C(F)(F)F)(OCC)OCC	Triethoxy((perfluorohexyl)ethyl)silane	0.701
CCC(=O)C(C)CC=C(C)C (stereo not drawn)	6-Octen-3-one, 4,7-dimethyl-	-0.554
CC/C=C\CCCCCCCCCCO	(Z)-Tetradec-11-enol	-2.824
CC/C=C\CC(C)OC(=O)c1ccccc1O (stereo partly drawn)	Benzoic acid, 2-hydroxy-, (3Z)-1-methyl-3-hexen-1-yl ester	-2.803
CC1C(C=O)CC2CC1C2(C)C (stereo not drawn)	Bicyclo[3.1.1]heptane-3-carboxaldehyde, 2,6,6-trimethyl-	-1.491
C=CC(=O)O[C@H]1C[C@@H]2CC[C@@]1(C)C2(C)C	Isobornyl acrylate	-1.907
CCCC[n+]1ccccc1.[Al+3].[Al+3].[Cl-].[Cl-].[Cl-].[Cl-].[Cl-].[Cl-].[Cl-]	1-Butylpyridinium heptachloroaluminate	-4.663
CCC[C@H]1CC[C@H]([C@H]2CC[C@H](CC)CC2)CC1	n/a	-3.618
Nc1nc(-c2ccc3ccccc3c2)cs1	4-(Naphthalen-2-yl)-1,3-thiazol-2-amine	-7.641
CN(C)Cc1ccccc1	N,N-Dimethylbenzylamine	0.29
CCC(=O)C1C(=O)CC(C(=O)O)CC1=O (stereo not drawn)	Prohexadione	-7.001
CCC[Si](OC(C)=O)(OC(C)=O)OC(C)=O	Propylsilanetriyl triacetate	-1.884
CO[C@@H]1O[C@H](COS(=O)(=O)c2ccc(C)cc2)[C@H]2OC(C)(C)O[C@@H]12	n/a	-2.001
O=C(O)c1cccc(Oc2ccccc2)c1	3-Phenoxybenzoic acid	-5.354
Clc1cccc(-c2c(Cl)cc(Cl)c(Cl)c2Cl)c1	2,3,3',4,6-Pentachlorobiphenyl	-4.325
C1=C\CCCCCC/1	Cyclooctene, (1Z)-	0.871
CC(C)CC(C)(O)CCC(C)(O)CC(C)C (stereo not drawn)	2,4,7,9-tetramethyldecane-4,7-diol	-3.837
Cc1nn(-c2ccccc2)c(=O)[c-]1/N=N/c1cc(Cl)c(S(N)(=O)=O)cc1[O-].Cc1nn(-c2ccccc2)c(=O)[c-]1/N=N/c1cc(Cl)c(S(N)(=O)=O)cc1[O-].[Cr+3].[Na+]	n/a	-5.973
CCn1c(O)c(N=Nc2ccccc2[N+](=O)[O-])c(C)c(C#N)c1=O	n/a	-5.727
CCOP(=O)(CO)OCC	Diethyl (hydroxymethyl)phosphonate	-0.066
O=C(Cl)c1cc(Cl)c(Cl)c(Cl)c1Cl	n/a	-2.71
CC[Si](OC(C)=O)(OC(C)=O)OC(C)=O	Ethyltriacetoxysilane	-1.429
CCCCCCCCCCCCCCCCOC(C)=O	Hexadecyl acetate	-4.444
CC(=CCC1CC=C(C)C1(C)C)CO (stereo in doubt)	n/a	-2.995
CCOC1CC(C)CC(C)(C)C1 (stereo not drawn)	3-Ethoxy-1,1,5-trimethylcyclohexane	0.219
Clc1cc(Cl)c2oc3c(Cl)cc(Cl)c(Cl)c3c2c1Cl	1,2,4,6,8,9-Hexachlorodibenzofuran	-7.165
C=C1CCC=C(C)CC[C@@H]2[C@@H]1CC2(C)C	beta-Caryophyllene	-1.259
CCOCCC(=O)OCC	Ethyl 3-ethoxypropionate	0.206
C/C=C/c1ccc(OC(C)=O)c(OC)c1	Isoeugenyl acetate, (E)-	-3.28
CCOCC(C)OC(C)=O (stereo not drawn)	1-Ethoxypropan-2-yl acetate	0.206
CCOC(=O)C(C)C1CCCCC1 (stereo not drawn)	Cyclohexaneacetic acid, .alpha.-methyl-, ethyl ester	-0.784
CCC1=NCCO1	Oxazole, 2-ethyl-4,5-dihydro-	0.079

Extract of 5 entries:

compound	name	log VP (log10 mmHg)
Clc1cccc(-c2c(Cl)cc(Cl)c(Cl)c2Cl)c1	2,3,3',4,6-Pentachlorobiphenyl	-4.325
C=CC(=O)O[C@H]1C[C@@H]2CC[C@@]1(C)C2(C)C	Isobornyl acrylate	-1.907
CCOC(=O)C(C)C1CCCCC1 (stereo not drawn)	Cyclohexaneacetic acid, .alpha.-methyl-, ethyl ester	-0.784
Cc1nn(-c2ccccc2)c(=O)[c-]1/N=N/c1cc(Cl)c(S(N)(=O)=O)cc1[O-].Cc1nn(-c2ccccc2)c(=O)[c-]1/N=N/c1cc(Cl)c(S(N)(=O)=O)cc1[O-].[Cr+3].[Na+]	n/a	-5.973
CCOP(=O)(CO)OCC	Diethyl (hydroxymethyl)phosphonate	-0.066

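These are experimental values that the OPERA curators gathered from public databases to train and test their QSAR models. The files give a single number for a compound and property, which may rest on several reports. Method and conditions are not stated for these values. A value may pool stereoisomers or salt forms, and the file does not say which form was measured. Some upstream entries may be estimates or bounds without being marked so.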